For this assay, the system named is anaerobes. The following applies: in vitro.

As for `NC[C@H]1O[C@H](O[C@H]2[C@H](O)[C@@H](O[C@H]3O[C@H](CO)[C@@H](O)[C@H](N)[C@H]3O)[C@H](N)C[C@@H]2N)[C@H](O)[C@@H](O)[C@@H]1O` [Kanamycin, kanamycin, reference compound], the activity against anaerobes result was “inactive against anaerobes”.

These data come from patent US4690926A, “Boxazomycin A and B, new antibiotics containing benzoxazole nucleus” (Bristol-Myers Company, priority 1986, dated 1987).
